Yeast mating assay 2: variants of the scFv Ab-91

Reference: Engelhart et al. 2022, doi:10.1038/s41597-022-01779-4. File: FLAb, binding data.

Target peptide (SARS-CoV-2 spike, HR2 region): PDVDLGDISGINAS

Parent: Ab-91, a human scFv built as VL, a (GGGGS)3 linker, VH. Only the CDRs of the heavy chain vary.
VL: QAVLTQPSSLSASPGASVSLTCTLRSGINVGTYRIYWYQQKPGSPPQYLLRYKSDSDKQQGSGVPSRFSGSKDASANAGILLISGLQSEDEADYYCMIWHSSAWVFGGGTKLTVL
VH: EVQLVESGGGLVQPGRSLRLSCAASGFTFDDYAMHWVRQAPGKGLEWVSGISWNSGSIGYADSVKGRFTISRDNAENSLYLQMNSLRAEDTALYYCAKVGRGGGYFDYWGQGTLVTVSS

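The starting antibody came from a phage panning campaign against this peptide. The library (AAYL51) carries one to three amino acid substitutions per variant, with no insertions or deletions. AlphaSeq pools MATa yeast showing the antibodies with MATalpha yeast showing the peptide. The frequency of each diploid, read from paired DNA barcodes, reflects how well the two displayed proteins bind. A regression on co-assayed BCL2-family reference pairs converts the normalised counts of each replicate to an apparent Kd. Mating was done three times.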

Substitutions are numbered in sequence along the VH above, starting at 1 (not Kabat).
Affinities are written as log10 Kd with Kd in nM; a lower number is a better binder.
Where no diploid with the target was found in that replicate, the entry reads "n.d.": below detection, most likely a poor binder, though not proof of it.

| changes | log10 Kd (nM) by replicate | control signals |
|---|---|---|
| G26F+Y60A+K65G | n.d. / n.d. / 4.36 | 1 of 9 (4.42) |
| F29L+S52H+G102L | n.d. / n.d. / n.d. | 0 of 9 |
| S52E+R101N+G103C | 1.47 / 1.67 / 1.44 | 2 of 9 (4.38) |
| T28K+I51D+S55V | n.d. / n.d. / n.d. | 0 of 9 |
| K65G+G100N+D107R | n.d. / n.d. / n.d. | 1 of 9 (4.09) |
| S52F+W53H+V64E | 3.85 / n.d. / 4.89 | 5 of 9 (4.67) |
| Y32W+G100Y+R101L | 3.10 / 3.22 / 2.07 | 0 of 9 |
| S52H+G59K+V64S | n.d. / n.d. / n.d. | 0 of 9 |
| S57M+Y60W+K65S | n.d. / n.d. / n.d. | 1 of 9 (3.93) |
| Y60S+R101P | 2.71 / 2.65 / 2.36 | 4 of 9 (5.27) |
| T28W+V99W+Y105Q | n.d. / 5.04 / 4.11 | 0 of 9 |
| S55C+V64L | 3.22 / n.d. / n.d. | 2 of 9 (3.82) |
| A33Q+Y105L+F106S | n.d. / n.d. / n.d. | 0 of 9 |
| S52A+G103D+Y105R | n.d. / n.d. / n.d. | 0 of 9 |
| G50K+N54I+K65R | n.d. / n.d. / n.d. | 0 of 9 |
| G26W+F29I+S52V | n.d. / n.d. / n.d. | 0 of 9 |
| W53E+S57K+F106Q | n.d. / n.d. / n.d. | 0 of 9 |
| D31I+N54M+G59Y | n.d. / n.d. / n.d. | 1 of 9 (4.11) |
| T28S+S63K+R101T | 4.40 / 6.31 / 4.72 | 2 of 9 (4.79) |
| G26E+H35F+S52G | n.d. / n.d. / n.d. | 1 of 9 (3.38) |
| F27N+W53G+G56H | 3.47 / 3.09 / 2.57 | 1 of 9 (3.79) |
| Y32R+G56D+K65Y | 2.21 / 2.09 / 2.44 | 1 of 9 (4.69) |
| I51V+D62T+G102W | n.d. / 4.92 / n.d. | 6 of 9 (5.38) |
| F27P+G56I+G103E | 5.26 / 6.83 / 4.79 | 7 of 9 (4.98) |
| F29I+S55R+K65S | 5.62 / n.d. / n.d. | 1 of 9 (3.38) |
| G26L+Y32S+F106P | n.d. / n.d. / n.d. | 3 of 9 (3.79) |
| F29M+D31F+S52F | 2.97 / n.d. / n.d. | 5 of 9 (4.12) |
| G26T+W53N+S63N | n.d. / 4.78 / n.d. | 7 of 9 (4.55) |
| D30Q+H35C+G103I | n.d. / n.d. / 3.51 | 0 of 9 |
| G26D+M34W+G56N | n.d. / n.d. / n.d. | 0 of 9 |
| S55W+D62V+G104N | n.d. / n.d. / n.d. | 0 of 9 |
| H35K+S63K+G103C | n.d. / n.d. / n.d. | 2 of 9 (3.68) |
| Y32F+V99Q+F106G | n.d. / 4.21 / n.d. | 2 of 9 (3.45) |

The closing 2 entries, repeated:

| changes | log10 Kd (nM) by replicate | control signals |
|---|---|---|
| H35K+S63K+G103C | n.d. / n.d. / n.d. | 2 of 9 (3.68) |
| Y32F+V99Q+F106G | n.d. / 4.21 / n.d. | 2 of 9 (3.45) |

Parent in this assay: reference entry 1.86, copy in this library 0.88.
Background: pairings of library AAYL51 with three empty control strains gave a value in 21% of cases (median 4.54, 5th percentile 3.26). Values in that range, when seen in few replicates, are hard to tell from nonspecific mating. The control count says in how many pairings with the empty strains this scFv gave a signal, with their mean in brackets.